Results as given in ChEMBL document CHEMBL2203137, “Design, synthesis, biochemical studies, cellular characterization, and structure-based computational studies of small molecules targeting the urokinase receptor” (Bioorg Med Chem, 2012).

Tests used:
Type in all cases: functional, cell-based
NCI-H1299 [1] = experiment: Inhibition of cell migration in human H1299 cells after 16 hrs by Boyden chamber analysis
NCI-H460 = experiment: Inhibition of cell invasion in human H460 cells after 16 hrs by matrigel assay
NCI-H1299 [2] = experiment: Inhibition of cell invasion in human H1299 cells after 16 hrs by matrigel assay
A549 = experiment: Inhibition of cell invasion in human A549 cells after 16 hrs by matrigel assay

Measured: inhibition

O=C(O)c1cccc(Nc2cc(N3CCCCCC3)c3noc4c3c2C(=O)c2ccccc2-4)c1
active: NCI-H1299 [1] Dose-dependent effect | NCI-H460 = Dose-dependent effect | NCI-H1299 [2] Dose-dependent effect | A549 = Dose-dependent effect
